Data reported in patent US6420131B1, “Use of fluorescein aryl ethers in high throughput cytochrome P450 inhibition assays” (Gentest Corporation, priority 1999, dated 2002).

Chains of the proteins cited; added tags and fusions are not shown.
UniProt P08684, whole entry: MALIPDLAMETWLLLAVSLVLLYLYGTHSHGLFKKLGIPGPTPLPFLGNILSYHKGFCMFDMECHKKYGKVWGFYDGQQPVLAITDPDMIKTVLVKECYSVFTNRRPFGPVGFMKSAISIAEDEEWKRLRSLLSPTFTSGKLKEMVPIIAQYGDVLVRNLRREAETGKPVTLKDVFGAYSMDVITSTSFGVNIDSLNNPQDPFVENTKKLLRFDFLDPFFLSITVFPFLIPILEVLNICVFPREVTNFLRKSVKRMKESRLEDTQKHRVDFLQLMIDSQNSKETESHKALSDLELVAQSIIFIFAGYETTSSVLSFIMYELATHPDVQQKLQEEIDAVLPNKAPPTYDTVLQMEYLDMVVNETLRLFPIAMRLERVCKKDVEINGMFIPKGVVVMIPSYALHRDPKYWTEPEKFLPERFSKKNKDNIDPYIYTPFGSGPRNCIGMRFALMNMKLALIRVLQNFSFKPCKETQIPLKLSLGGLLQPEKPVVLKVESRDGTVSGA

Biological target: human CYP3A4 (Homo sapiens, UniProt P08684)

## CCC(C)n1ncn(-c2ccc(N3CCN(c4ccc(OCC5COC(Cn6cncn6)(c6ccc(Cl)cc6Cl)O5)cc4)CC3)cc2)c1=O (stereo not shown) [Itraconazole]
  Range: 10
